Where “and” joins values, the source holds several entries; their conditions need not be identical. Equal entries are not always repeated. Only a part is listed here, and it is no random draw. Calls of active or inactive are those of the source. Cut-off read from the data, not from the text of the source: active = growth inhibition above about 70%; inactive = the rest.
What was measured:
[1] = NCI Yeast Anticancer Drug Screen. Data for the rad50 strain (AID 155);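 note: 0% = growth of vehicle-only cultures of the same strain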; conditions: S. cerevisiae rad50 strain growth inhibition; at 50.0 µM; active compounds read high
[2] = NCI Yeast Anticancer Drug Screen. Data for the mec2-1 strain (AID 157); conditions: S. cerevisiae mec2-1 strain, at 50.0 µM, active compounds read high
[3] = NCI Yeast Anticancer Drug Screen. Data for the sgs1 mgt1 strain (AID 161);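 note: 0% = growth of cultures given vehicle only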; conditions: S. cerevisiae sgs1 mgt1 strain, at 50.0 µM, active compounds read high
[4] = NCI Yeast Anticancer Drug Screen. Data for the cln2 rad14 strain (AID 165);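 note: 0% = growth equal to vehicle treated cultures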; conditions: S. cerevisiae cln2 rad14 strain, at 50.0 µM, active compounds read high
[5] = NCI Yeast Anticancer Drug Screen. Data for the bub3 strain (AID 167); conditions: S. cerevisiae bub3 mutant strain, at 50.0 µM, active compounds read high
[6] = NCI Yeast Anticancer Drug Screen. Data for the mlh1 rad18 strain (AID 175); conditions: S. cerevisiae mlh1 rad18 strain growth inhibition; at 50.0 µM; active compounds read high

SMILES	growth inhibition [1]	growth inhibition [2]	growth inhibition [3]	growth inhibition [4]	growth inhibition [5]	growth inhibition [6]
CCC(C)OP(OC(C)CC)OC(C)CC (stereo unspecified)	inactive: -10.2%	inactive: -19.4%	inactive: -16.9%	inactive: -14.9%	inactive: 0.45%	inactive: -16.4%
Cc1cccc(OP(=S)(Cl)Oc2cccc(C)c2)c1	inactive: 35%	inactive: 49.2%	inactive: 13.9%	inactive: 11.7%	inactive: 7.65%	inactive: 12.9%
Cc1ccc(CNCCCl)cc1	inactive: 45.5%	inactive: 40.6%	inactive: 42.1%	inactive: 19.3%	inactive: 39.8%	inactive: 41.4%
O=[N+]([O-])c1ccc(-c2ccccc2[N+](=O)[O-])c([N+](=O)[O-])c1	inactive: 31.5%	inactive: 16.7%	inactive: 7.95%	inactive: 14.4%	inactive: 16.9%	inactive: 40.6%
CCCC/C=N\NC1=NC(C)(CCC2(C)N=C(N/N=C\CCCC)SP2(=O)Nc2ncccn2)P(=O)(Nc2ncccn2)S1 (stereo unspecified)	inactive: -25.4%	inactive: 22.4%	inactive: 50.9%	inactive: 38.5%	inactive: 24.2%	inactive: -30.1%
CCOC(=O)NC(C)(CC(C)(NC(=O)OCC)P(=O)(O)Nc1ncn[nH]1)P(=O)(O)Nc1ncn[nH]1 (stereo unspecified)	inactive: 13.8%	inactive: 3.35%	inactive: 12.3%	inactive: 3.7%	inactive: 15.8%	inactive: 14.3%
COP(OC)c1ccc(C)cc1	inactive: -2%	inactive: -14.3%	inactive: -1.65%	inactive: 4.3%	inactive: 9.4%	inactive: 3.15%
O=C(O)C1COP(=O)(N(CCCl)CCCl)N1 (stereo unspecified)	inactive: -36.1%	inactive: -15.8%	inactive: 2.6%	inactive: -22.5%	inactive: 6.95%	inactive: 10.1%
CCCCNCCCC	inactive: 1.3%	inactive: 0.95%	inactive: 2.45%	inactive: -9.35%	inactive: -6.95%	inactive: -1.05%
ICC1OOC1C1OOC1CI (stereo unspecified)	inactive: 12.2%	inactive: 7.4%	inactive: -2.2%	inactive: -1.25%	inactive: -0.8%	inactive: 15%
Cc1[nH]c2cc([N+](=O)[O-])c([N+](=O)[O-])cc2c1[N+](=O)[O-]	inactive: 19.3%	inactive: -11.8%	inactive: 10.6%	inactive: 19.6%	inactive: -6.45%	inactive: 4.3%
O=C(CBr)c1ccc([N+](=O)[O-])cc1	inactive: -11.2%	inactive: 6.9%	inactive: 3.15%	inactive: -18.4%	inactive: -16.1%	inactive: -4.7%
CCCc1cc(C)cc2nc(-c3ccccc3)oc12	inactive: 12.6%	inactive: 1.25%	inactive: 3.4%	inactive: -7.5%	inactive: 1.2%	inactive: 5.35%
NC(CO)C(=O)O (stereo unspecified)	inactive: -18.2% and inactive: -1.95%	inactive: -3.05% and inactive: -0.35%	inactive: -9.9% and inactive: 7.05%	inactive: -3% and inactive: 1.85%	inactive: 7.35% and inactive: 15.9%	inactive: -3.7% and inactive: 5.3%
Cc1ccc2c(c1)C[P+](c1ccccc1)(c1ccccc1)CC2C (stereo unspecified)	inactive: 54.5%	inactive: -3.5%	inactive: 36.2%	inactive: 0.05%	inactive: 25.1%	inactive: 15.1%
O=[N+]([O-])c1ccc(Nc2ccc(Oc3ccc([N+](=O)[O-])cc3[N+](=O)[O-])cc2)c([N+](=O)[O-])c1	inactive: -10.7%	inactive: -11.1%	inactive: -16.6%	inactive: 6.6%	inactive: -8.15%	inactive: -20.4%
ClCCN1Cc2ccccc2C1	inactive: 39.1%	inactive: -8.2%	inactive: 11.7%	inactive: 2.15%	inactive: -2.1%	inactive: 30%
O=C(CSc1ccc([N+](=O)[O-])cc1[N+](=O)[O-])c1ccc([N+](=O)[O-])cc1	inactive: 5.25%	inactive: 26.7%	inactive: 15.4%	inactive: -7.05%	inactive: 30.8%	inactive: 13.5%
ClCCNC1c2ccccc2CC1Cl (stereo unspecified)	inactive: -7.65%	inactive: 0.1%	inactive: -10.8%	inactive: -19.9%	inactive: -6.6%	inactive: -15.4%
CC(/C=C/C(C)=N\Nc1ccc([N+](=O)[O-])cc1[N+](=O)[O-])=N/Nc1ccc([N+](=O)[O-])cc1[N+](=O)[O-]	inactive: -27.5%	inactive: 3.45%	inactive: -10.3%	inactive: 5%	inactive: -2.3%	inactive: -7.45%
O=C(OOC(=O)c1ccc([N+](=O)[O-])cc1)c1ccc([N+](=O)[O-])cc1	inactive: 3.55%	inactive: -25.9%	inactive: -5.95%	inactive: 20.5%	inactive: -0.05%	inactive: 15.2%

SMILES	growth inhibition [1]	growth inhibition [2]	growth inhibition [3]	growth inhibition [4]	growth inhibition [5]	growth inhibition [6]
O=[N+]([O-])c1cc([As](=O)(O)O)ccc1Cc1ccc([As](=O)(O)O)cc1[N+](=O)[O-]	inactive: -12.9%	inactive: 16.8%	inactive: -12.2%	inactive: -10.7%	inactive: -18.2%	inactive: 4.65%
O=[N+]([O-])c1cccc(SC2CCCCC2Cl)c1 (stereo unspecified)	inactive: -0.75%	inactive: 21.2%	inactive: 0.9%	inactive: 54.1%	inactive: 27.8%	inactive: 12.4%
CC(Br)CN(CC(C)Br)c1cccc(C(=O)O)c1 (stereo unspecified)	inactive: 11.8%	inactive: 4.35%	inactive: 9.2%	inactive: 5%	inactive: 11.3%	inactive: 41.7%
CCCCOP(=O)(N=C(N)N)OCCCC	inactive: -10.6%	inactive: -1.85%	inactive: 16.2%	inactive: 0%	inactive: 6%	inactive: 1.45%
CN(N)/C(N)=N/[N+](=O)[O-]	inactive: 15.8%	inactive: -4.95%	inactive: 24.1%	inactive: -10.6%	inactive: 6.7%	inactive: 23.1%
Clc1ccnc2ccc(-c3ccccc3)cc12	active: 99.4%	active: 99.5%	active: 99.6%	active: 97.8%	active: 74%	active: 99.4%
COC(=O)C(C(=O)OC)C1=NCC(Br)CS1 (stereo unspecified)	inactive: -11.2%	inactive: 1.45%	inactive: 11.5%	inactive: 10.7%	inactive: 6.65%	inactive: 15.3%
O=C1C2CCCCC1C(N1CCCC1)CC2 (stereo unspecified)	inactive: 58.8%	inactive: 6.75%	inactive: 39.1%	inactive: -4.35%	inactive: 10.1%	inactive: 34.3%
ClCCN(CCCl)c1cccc(Oc2ccccc2)c1	inactive: -17.5%	inactive: 9.1%	inactive: -6.45%	inactive: -47.9%	inactive: 17.4%	inactive: -17.8%
Clc1ccc(P(Cl)Cl)cc1	inactive: 6.2%	inactive: -26.2%	inactive: 6.75%	inactive: 1.95%	inactive: -12.8%	inactive: -5.2%
Cn1c(COC(=O)N(CCCl)CCCl)cnc1[N+](=O)[O-]	inactive: -17.7%	inactive: 6.85%	inactive: -31.6%	inactive: 28.1%	inactive: 12.6%	inactive: 10.3%
[N-]=[N+]=Nc1ccc(F)c([N+](=O)[O-])c1	inactive: -4.75%	inactive: -1.8%	inactive: -2.75%	inactive: 6.3%	inactive: -12.3%	inactive: 1.05%
CCOC1=NC(C(F)(F)F)(C(F)(F)F)N=C(NC2=NP(=O)(OCC)C(C)(C)N2C)O1 (stereo unspecified)	inactive: -12.8%	inactive: -12.8%	inactive: 7.8%	inactive: -2.6%	inactive: -9.15%	inactive: -15.9%
CC(C)N[N+](=O)[O-]	inactive: -9.1%	inactive: -7.85%	inactive: -2.1%	inactive: 7.1%	inactive: -9.25%	inactive: -2%
COc1ccc(CNCCBr)cc1	inactive: 5.05%	inactive: -2.25%	inactive: 10.7%	inactive: -10.8%	inactive: -0.4%	inactive: -0.8%
O=C(O)c1ccccc1[As](=O)(O)O	inactive: 4.05%	inactive: -2.65%	inactive: -6.25%	inactive: 5.8%	inactive: -44.6%	inactive: -25.7%
CC(C)(C)C1CC(C(F)(F)F)(C(F)(F)F)OP(=O)(Cl)O1 (stereo unspecified)	inactive: -5.3%	inactive: 9.85%	inactive: 7.2%	inactive: 4.8%	inactive: 5.75%	inactive: -0.5%
ICCN(CCI)c1ccccc1-c1ccccc1	inactive: 12.2%	inactive: -3.75%	inactive: 21.6%	inactive: 30.4%	inactive: 4%	inactive: 50.7%
CCN(CC)C(=O)Oc1ccc(COC(C)=O)nc1	inactive: -29.2%	inactive: -24.6%	inactive: -8.3%	inactive: 3.35%	inactive: -22.4%	inactive: -10.1%
C[N+](CCCl)(CCCl)Cc1ccccc1[N+](=O)[O-]	inactive: -42.5%	inactive: -23.9%	inactive: -30.2%	inactive: 19.9%	inactive: -6%	inactive: -29.1%
